Results reported in patent US20220305048A1, “USE OF HEPARIN TO PROMOTE TYPE 1 INTERFERON SIGNALING” (Dana-Farber Cancer Institute, Inc., priority 2019, published 2022).

Key:
[1] = system: B16F10 mouse melanoma cells; Lewis Lung Carcinoma (LLC) mouse non-small-cell lung cancer cells; assay: CXCL10 ELISA of conditioned media, interferons +/- heparin; assay type: cell-based; conditions: interferon 5 ng/mL +/- heparin 1 μg/mL, 24 hours
From the text: FIGS. 8A to 8D include plots and Western blots showing heparin enhances type I interferon effects but not interferon gamma effects. […] ANOVA p<0.0001. *p<0.05 ****p<0.0001 by Bonferroni corrected pairwise comparison.
This effect was not seen with IFNg.

[2] = system: B16F10 mouse melanoma cells; assay: CXCL10 ELISA of conditioned media; assay type: cell-based; conditions: IFNb 1, 5, 10 and 100 ng/mL, heparin 1 μg/mL

B1: IFNb: interferon beta (R&D systems) (protein, UniProt P01574 22-187, looked up)
Interferon beta: MSYNLLGFLQRSSNFQCQKLLWQLNGRLEYCLKDRMNFDIPEEIKQLQQFQKEDAALTIYEMLQNIFAIFRQDSSSTGWNETIVENLLANVYHQINHLKTVLEEKLEKEDFTRGKLMSSLHLKRYYGRILHYLKAKEYSHCAWTIVRVEILRNFYFINRLTGYLRN
In the case of B1, the “amount of CXCL10 in the media with heparin compared to interferon alone” value [1] is reported as “increase significantly” and the “amount of CXCL10 in the culture media in the presence vs absence of heparin, IFNb dose response” value [2] is reported as “significantly higher amounts of CXCL10”.
